{"source": "patent US20040175378A1", "about": "“Selected antibody compositions and methods for binding to aminophospholipids” (Board of Regents, The University of Texas System, priority 2002, published 2004)", "test_system": "HUVEC", "assay": "MTT cytotoxicity assay", "assay_type": "cell-based, human", "protocol": "FIG. 32. Duramycin conjugate is not cytotoxic. The naturally occurring duramycin compound and the biotinylated duramycin construct, DLB were tested for cytotoxic effects on human umbilical vein endothelial cells (HUVEC) using an MTT assay.\nThe biotinylated duramycin construct DLB was prepared as described in Example XV. The unmodified duramycin compound and DLB were tested for cytotoxic effects on HUVEC using an MTT assay."}
{"substance": "duramycin", "values": [{"measurement": "cytotoxic effects on HUVEC", "result": "dose-dependent toxicity"}]}
